Protein sequences, listed by entry. Tags and fused reporters are not part of them. Lines headed by an entry give the natural chain unless they say otherwise; changes in a name come on top.
UniProt P41145: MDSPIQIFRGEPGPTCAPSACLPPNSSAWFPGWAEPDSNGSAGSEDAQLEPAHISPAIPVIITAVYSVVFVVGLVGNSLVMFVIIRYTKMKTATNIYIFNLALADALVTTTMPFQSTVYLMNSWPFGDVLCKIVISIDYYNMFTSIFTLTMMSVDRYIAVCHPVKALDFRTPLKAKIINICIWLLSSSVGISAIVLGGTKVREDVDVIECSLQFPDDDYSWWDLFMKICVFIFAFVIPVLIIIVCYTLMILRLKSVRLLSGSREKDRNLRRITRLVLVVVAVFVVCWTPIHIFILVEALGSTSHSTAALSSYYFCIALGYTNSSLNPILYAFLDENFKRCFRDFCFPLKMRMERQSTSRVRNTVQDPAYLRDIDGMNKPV

According to ChEMBL document CHEMBL5126521, “Analgesic Opioid Ligand Discovery Based on Nonmorphinan Scaffolds Derived from Natural Sources” (J Med Chem, 2022):

Biological target: Kappa-type opioid receptor (Homo sapiens, UniProt P41145)

Cc1cc(O)cc(C)c1C[C@H](N)C(=O)N[C@H](CCCNC(=N)N)C(=O)N[C@@H](Cc1ccccc1)C(=O)N[C@@H](CCCCN)C(N)=O
Ki: 2410 nM
